Test results: publication PMC12335590

What was measured:
[1] = molecular target: human platelet glycoprotein Ibα (human (endogenous in platelets)) (UniProt P07359); experiment: co-IP; GPIbα precipitated with an anti-GPIbα antibody on protein G magnetic beads from lysates of washed human platelets, resting or activated with VWF/ristocetin (0.4 mg/mL), with DMSO or LatA (15 µM); PHEM buffer, 1% Triton X-100, 0.5% N-octylglucoside, 2 µM phalloidin; washes with 500 mM NaCl; blots for β-actin and MICAL1
[2] = molecular target: mouse platelet glycoprotein Ibα (mouse (endogenous in platelets)) (UniProt O35930); experiment: co-IP; GPIbα precipitated with anti-GPIbα antibodies (Xia.G5/Xia.G7) from lysates of shear-activated mouse platelets scraped from a recombinant mouse VWF matrix after blood perfusion at 1500 s-1; PHEM 1% Triton X-100, 2 µM phalloidin; Mical1+/+ and Mical1-/- platelets, Mical1-/- with DMSO or LatA (125 nM); blot for β-actin

| fold increase of β-actin co-precipitated with GPIbα, VWF/ristocetin-activated against resting platelets [1] [fold] | fold increase in β-actin co-precipitated with GPIbα, Mical1-/- against control platelets, after flow at 1500 s-1 [2] [fold] | Substance |
| --- | --- | --- |
| 20 | – | human β-actin (F-actin) (from UniProt P60709 1-375) (natural protein) |
| – | > 3 | mouse β-actin (F-actin) (from UniProt P60710 1-375) (natural protein) |
